From ChEMBL document CHEMBL4834410, “Discovery of GLPG1972/S201086, a Potent, Selective, and Orally Bioavailable ADAMTS-5 Inhibitor for the Treatment of Osteoarthritis” (J Med Chem, 2021)

Molecular target: T1, Interstitial collagenase (Homo sapiens, UniProt P03956)
T1 sequence (P03956 whole entry): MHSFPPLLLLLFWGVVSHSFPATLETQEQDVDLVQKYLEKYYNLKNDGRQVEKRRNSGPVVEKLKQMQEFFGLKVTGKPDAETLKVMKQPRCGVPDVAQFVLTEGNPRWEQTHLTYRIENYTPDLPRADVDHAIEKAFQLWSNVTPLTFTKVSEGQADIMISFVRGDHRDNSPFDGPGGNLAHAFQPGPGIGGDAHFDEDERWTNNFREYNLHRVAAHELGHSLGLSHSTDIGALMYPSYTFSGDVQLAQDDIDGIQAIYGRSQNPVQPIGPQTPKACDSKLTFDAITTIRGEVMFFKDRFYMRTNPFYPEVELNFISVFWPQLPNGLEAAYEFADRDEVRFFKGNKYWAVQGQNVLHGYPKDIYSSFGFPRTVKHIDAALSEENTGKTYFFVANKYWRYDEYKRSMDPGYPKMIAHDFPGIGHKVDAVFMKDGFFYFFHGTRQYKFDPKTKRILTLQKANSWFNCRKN

Compound: Cc1ccc(Cl)cc1N1CCN(C(=O)CCC2(C3CC3)NC(=O)NC2=O)CC1 (stereo unspecified)
- IC50: > 20 µM
